Two sequences from US5741891A, “Pulmonary surfactant peptide solubilization process” (Ortho Pharmaceutical Corporation, priority 1996, dated 1998) can be followed below.

Data set [1] is described as follows: OD450 light-scattering measurement of aggregation during incubation in trifluoroethanol (TFE). Particulars: 27° C.
The nature of data set [2]: OD450 light-scattering measurement of aggregation of peptide dissolved in 95% EtOH. Particulars: 5 mg/ml, 45° C.
For data set [3] the following is noted: 5 mg/mL in 95% EtOH, after TFE treatment.

Bounds are passed on as bounds.

In the case of KLLLLKLLLLKLLLLKLLLLK [KL4 peptide], the “OD450” value in data set [1] (time 2 hrs) was determined as 0.0204; in data set [1] (time 5 hrs), 0.0165; in data set [1] (time 7 hrs), 0.0234; in data set [1] (time 24.5 hrs), 0.0124; in data set [1] (time 24.5 hrs (filtered)), 0.0067.

“KLLLLKLLLLKLLLLKLLLLK [TFE treated KL-4]”: the OD450 in data set [2] (t = 0 min) was less than 0.05; in data set [2] (t = 0 min, listed as BO) it was 0.0199; in data set [2] (t = 10 min) it was 0.0173; in data set [2] (t = 20 min) it was 0.0131; in data set [2] (t = 30 min) it was 0.0589; in data set [2] (t = 40 min), 0.0681. In addition, the “appearance of solution on dissolving in 95% EtOH” value in data set [3] is “clear non viscous solution”.
